## scFv variants of Ab-14 (light chain) against a SARS-CoV-2 spike peptide

The measurements come from Li et al. 2023 (doi:10.1038/s41467-023-39022-2) through the FLAb antibody collection.

Binding partner: SARS-CoV-2 spike HR2 peptide, sequence PDVDLGDISGINAS.

Parent scFv Ab-14: VH joined to VL by the linker GGGGSGGGGSGGGGS. Changes lie in the light chain CDRs alone.
VH: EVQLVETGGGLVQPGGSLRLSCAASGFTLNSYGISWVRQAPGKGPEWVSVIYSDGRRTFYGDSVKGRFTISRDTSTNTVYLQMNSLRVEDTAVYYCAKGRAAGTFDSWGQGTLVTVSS
VL: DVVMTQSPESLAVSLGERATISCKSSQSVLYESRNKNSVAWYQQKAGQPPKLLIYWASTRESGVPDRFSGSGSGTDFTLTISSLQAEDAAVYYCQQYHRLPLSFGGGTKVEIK

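Phage display of a naive human antibody library on the peptide gave the parent. These sequences belong to a second round, designed from the earlier measurements on random variants of the parent. Group labels follow the data file (Ctrl: baseline library sampled from a position-specific scoring matrix, with some repeated check sequences; Rand: our label for a block that the file lists under HC and that is probably the random mutants of the ten best first-round binders; En: ensemble of fine-tuned language models; GP: Gaussian process model; HC: hill climbing; Gen: genetic algorithm; Gibbs: Gibbs sampling; a sequence that several methods proposed may carry one label only). The assay is AlphaSeq: two haploid yeast populations carry antibody and antigen on their surface. Binding brings cells together so that they mate, and sequencing counts the barcode pairs among the diploids. A regression on co-assayed BCL2-family reference pairs converts the normalised counts of each replicate to an apparent Kd. The assay was run in six technical replicates.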

The parent's light chain CDRs are KSSQSVLYESRNKNSVA, WASTRES, QQYHRLPLS; each variant's own CDRs replace them letter for letter.
The Kd shown is the geometric mean over detected replicates; a lower Kd is a better binder.
An entry "not detected" has no value in the source: the pair was not observed among the diploids in any replicate. This suggests poor binding but is not conclusive.
Values of this round are not directly comparable with the first-round values of the same sequences.
Nonspecific signal, from three strains lacking the peptide, appeared in 4% of pairings of all light chain designs, centred on 430 nM (5% of these signals below 38 nM); values are not corrected for it.
Of ten entries with the parent sequence, four were seen in most replicates (averages 2.2 nM to 240 nM), three in one and three in none, so single entries are noisy.
The authors averaged sequences with at least three values out of six and counted those with two or fewer as poor binders.

CDR-L1	CDR-L2	CDR-L3	group	apparent Kd	detected
KVSQSVLYEGRTKNSVA	NASTRES	QQYHRLPLS	GP_HC	5.5 nM	6/6
TISQVTGLLQHNTNSVA	DMNTRGS	QQYDRLPLS	En_HC	1.6 nM	6/6
IISQVDDYLSRQTNSIA	DQSTRGS	QQYDRLPLS	En_HC	19 nM	6/6
KLSQSDLYESRNPNSVA	NASTRES	QQYHRLPLS	GP_Gen	270 pM	6/6
HSSPSVSYESRNKNSVA	NASTRES	QQYHRLPLS	GP_HC	95 nM	5/6
KLSQSVLYEERNKNSVA	DASQRES	QQYHRLPLS	GP_Gen	550 pM	6/6
KSSQSDLYEDVNKNSVA	WASTRES	QQYHRLPLS	Ctrl	31 nM	3/6
KLSVSTSYLSVNKNSVA	EMSTREN	QQYDRLPLS	En_HC	1.9 nM	6/6
KLSQSQLYESRNWNSVA	NASTRES	QQYHRLPLS	GP_Gen	1.1 nM	6/6
KIEQILFPYGPSWHSVA	NANTLLA	QQYYMLPLM	En_Gibbs	19 nM	6/6
MSSPSKLRESRNKNSVA	SASTRES	QQYHRLPLS	Ctrl	12 nM	6/6
MGLESYYQGVHEMNNVA	EGDQKLD	QQYYRLPLA	En_Gibbs	6.1 nM	6/6
KVSFSYLLESRNKNSVA	EASTRES	QQYHRLPLS	GP_HC	1.9 nM	6/6
HITYGMYVSGRHTSNIA	QAETRMQ	QQYDRLPLI	En_Gen	4.3 nM	6/6
KLGMTLNTLMHKQNNVA	DLVTREN	QQYFRLPLS	En_Gen	2.3 nM	6/6
KVEGSHLYESRNGNSVA	NASQRED	QQYHRLPLS	GP_Gibbs	2.7 nM	6/6
FVSQSVLYESRNKNSVA	NASTRES	QQYHRLPLS	GP_Gen	630 pM	6/6
ILSQSVLMGSHLKNSVA	QASTRFS	QQYHRLPLM	En_HC	9.5 nM	6/6
KFSNSGLYESRNKNSVA	EASTRES	QQYHRLPLS	GP_HC	840 pM	6/6
RVQINSGHSDMHWYSIA	SASIRAD	QQYERLPLA	En_Gibbs	12 nM	6/6
YSSQSVLYESRNKNSVA	MASTREA	QQYHRLPLS	Ctrl	22 nM	5/6
KHSQSVLGESRNKNSVW	QASTRES	QQYHRLPLS	Ctrl	not detected	0/6
VSSQSVLYESRNKNSVA	DASTRES	QQYHRLPLS	Ctrl	4.2 nM	6/6
ALSDWEWAGEENINAVA	DRSALEW	QQYDRLPLS	En_Gibbs	23 nM	6/6
MISMEEAPASQNASSIA	QGGLRAK	QQYNRLPLC	En_Gibbs	140 nM	3/6
KLSPSVLYESRNKNSVA	WASTRQS	QQYHRLPLS	Ctrl	1.4 nM	6/6
KLSQEMEYESRNKASVA	HASTRES	QQYHRLPLS	GP_Gibbs	5.4 nM	4/6
KMSSSWMQEERNKNSVA	QASQREQ	QQYHRLPLS	GP_Gibbs	670 pM	6/6
KLSQSYLYESRNKNNVA	EASTRES	QQYHRLPLS	GP_Gen	730 pM	6/6
TISQMSTLFAQSINNVA	EVSTRLN	QQYDRLPLA	En_Gen	2.5 nM	6/6
KQSQSVLYESRPKNSVA	WASTRGS	QQYHRDPLS	Ctrl	not detected	0/6
KVSQSVLYESRQKNSVA	NASTRES	QQYHRLPLS	GP_Gen	340 pM	6/6
KSSQSFLYESRNSNSVA	GASTRES	QQYHRLPLS	GP_HC	830 pM	6/6
KQGQSVLYESLNKNSVA	QASTREL	QQYERLPLS	Ctrl	not detected	0/6
KLSQSQLYESRNKNSVA	NASTREQ	QQYHRLPLS	GP_Gen	2.1 nM	6/6
KISQSVLYESRNKNSVA	DASTREV	QQYHRLPLS	Ctrl	560 pM	6/6
KISQMYRYEQQNSSSIA	EMNTREQ	QSYHRLPLS	En_HC	not detected	0/6
KLTMMYQHTSRNKNNIA	ERSTREE	QQYNHLPLS	En_HC	11 nM	5/6
TLSDVMHMESRNVNNVA	DLVKRES	QQYHRLPLS	En_HC	2.2 nM	6/6
KLSQITGHMSVSKNNVA	EMATREN	QQYDRLPLS	En_Gen	6.7 nM	6/6
HSSPLVLYESRNKNHVE	NASTRES	QQYHRLPLS	Rand	not detected	0/6
KVSLSVMLESRNVNAVA	EASTRES	QDYHRLPLS	GP_Gibbs	13 nM	6/6
KFFGGIPEFERDDYSIA	MGTLRET	QQYQRLPLS	En_Gibbs	12 nM	6/6
KLSQSVLYESRLKNNVA	DASTRES	QQYHRLPLS	GP_Gen	1.9 nM	6/6
KLQQSWLYESRNKNSVA	NASKRES	QQYHRLPLS	GP_Gen	1.0 nM	6/6
MISQLMNMGQFAINSVA	QASIRNY	QQYDRLPLM	En_Gen	5.6 nM	6/6
MISQIYNMGTFAINSVA	QASIRNA	QQYDRLPLM	En_Gen	110 nM	6/6
KYYPSYYYESRNKNSVA	QASTRES	QQYHRLPLS	GP_HC	1.7 nM	6/6
QLAVDRLQEYEMGDAIA	GKTTRED	QQYARLPLS	En_Gibbs	1.2 nM	6/6
KSSQSVGYESRNKNSVA	WCSTRES	QRYHRLPLS	Ctrl	not detected	0/6
KWSQSVLFESRNKNSVA	DASFRES	QQYHRLPLS	GP_HC	880 pM	6/6
KSSQSVLGESRNKNSVA	DASDRES	QQYHRLPLS	GP_HC	3.5 nM	6/6
HVSQSVLYESRNKNSVA	DASTRES	QQYHRLPLS	GP_HC	650 pM	6/6
KLSQSWMYESRNKNSVA	NASTRES	QQYHRLPLS	GP_Gen	180 pM	6/6
KVSQSNLYESRNANNVA	NASLRES	QQYHRLPLS	GP_Gibbs	390 pM	6/6
KLSMSYRYESQEKNSIA	EMSTREE	QSYHRLPLS	En_HC	74 nM	5/6

Picked from the list: the 7 lowest averages where every replicate gave a value.

CDR-L1,CDR-L2,CDR-L3,group,apparent Kd,detected
KLSQSWMYESRNKNSVA,NASTRES,QQYHRLPLS,GP_Gen,180 pM,6/6
KLSQSDLYESRNPNSVA,NASTRES,QQYHRLPLS,GP_Gen,270 pM,6/6
KVSQSVLYESRQKNSVA,NASTRES,QQYHRLPLS,GP_Gen,340 pM,6/6
KVSQSNLYESRNANNVA,NASLRES,QQYHRLPLS,GP_Gibbs,390 pM,6/6
KLSQSVLYEERNKNSVA,DASQRES,QQYHRLPLS,GP_Gen,550 pM,6/6
KISQSVLYESRNKNSVA,DASTREV,QQYHRLPLS,Ctrl,560 pM,6/6
FVSQSVLYESRNKNSVA,NASTRES,QQYHRLPLS,GP_Gen,630 pM,6/6